Patent US20080293070A1, “Markers for Memory T Cells and Uses Thereof” (priority 2005, published 2008)
“And” between values parts separate entries of the source, which are not always exact repeats. Equal entries are not always repeated.

What was measured:
pSTAT5a (Y694) = assay: STAT5a phosphorylation in TCM and TEM in response to IL-2 or IL-7, flow cytometry; format: cell-based, human; details: IL-2 100 U/ml, 15 min
Method: FIG. 5. […] (A) PIM-1 and PIM-2 proteins levels in ex-vivo sorted TCM and TEM subsets. […] (B, C and D) PBMCs from healthy donors were treated with IL-2 (100 U/ml) or IL-7 (10 ng/ml) for 15 min at 37° C. Cells were then labeled with Abs to CD4, CD27, CCR7, CD45RA and pSTAT5a. (B) Representative example of pSTAT5a expression levels. TCM-gated cells are represented in light grey and TEM-gated cells are represented in black. (C) Mean Fluorescence Intensity (MFI) of pSTAT5a level of expression measured in response to IL-2 or IL-7, in TCM and TEM (n=4). Mean pSTAT5a signal values are represented by black bars. P-values (determined by a two-tailed T-test) are shown (D) Expression level of CD127, CD25 and CD132 in ex-vivo TCM and TEM. PBMCs were labeled with Abs to CD4, CD27, CCR7 and CD45RA to identify T cells subsets in conjunction with anti-CD127 or anti-CD25 specific Abs. […]
STAT5a is a downstream effector of yc cytokines (Nosaka, T. et al., 1999. Embo J 18:4754-4765). […] Because of the importance of the STAT5a pathway in the regulation of T-cell survival (Nosaka, T. et al., supra), we evaluated the ability of IL-2 and IL-7 to trigger the STAT5a signaling pathway in CD4^+ T cell memory subsets. The phosphorylated form of STAT5a (Y694) (pSTAT5a) was quantified by flow cytometry. […]

[1] = test system: pFOXO3a (S253, S315 and T32); assay: FOXO3a phosphorylation in CD4+ T cells in response to TCR and cytokine engagement, Western blot; format: cell-based, human; details: 30 min, IL-7 10 ng/ml, IL-2 100 U/ml
Method: FIG. 9. FOXO3a phosphorylation is induced by TCR and cytokine engagement. (A) CD4^+ T cells were cultured in the presence of anti-CD3 (2 μg/ml), anti-CD28 (2 μg/ml), anti-CD3+CD28, IL-2 (100 U/ml), IL-7 (10 ng/ml), IFN-γ (50 μg/ml) or PMA (50 ng/ml) for 15 min and analyzed by Western Blot for pFOXO3a (S315 and S253) expression levels. The results are representative of two independent experiments. (B) CD4^+ T cells were cultured in the presence of anti-CD3/anti-CD28, IL-2 (100 U/ml), IL-7 (10 ng/ml) for 30 min and analyzed by Western Blot for pFOXO3a (T32) expression levels.
Western Blotting analysis. TCM and TEM were sorted as described above. […] HRP activity was detected using an enhanced chemiluminescence detection procedure (ECL-plus detection system, Amersham Biosciences). […] Protein expression levels were expressed as a percentage of the highest signals obtained.
To identify the signals that trigger FOXO3a phosphorylation in CD4^+ T cells, we quantified the levels of pFOXO3a (S253, S315 and T32) in response to CD3 and/or CD28 cross-linking, as well as IL-2, IL-7, IFN-γ and PMA treatment. pFOXO3a (S253) was easily detectable in ex-vivo CD4^+ T cells, and none of the tested stimuli induced significant changes in the expression level of this phosphorylated form of FOXO3a (FIG. 9A). […]

In the case of IL-2: Recombinant human IL-2, the “proportion of cells showing phosphorylated STAT5a” value (pSTAT5a (Y694); TCM) is reported as 90-100% and 100%, the “proportion of cells showing phosphorylated STAT5a” value (pSTAT5a (Y694); TEM) is reported as 50-60% and the “levels of pFOXO3a at T32” value [1] is reported as “No induction”.
